Laboratory results reported in US20260028404A1, “METHODS FOR TREATING CANCER INCLUDING GLATIRAMER ACETATE AND IMMUNE CHECKPOINT INHIBITORS” (UNIVERSITY OF KANSAS, priority 2022, published 2026).

Settings: mouse tumors, intratumoral injection

## Glatiramer acetate [GA]
  persistence in tumors: persists in mouse tumors after intratumoral injection
